Activity calls are given as the source filed them. No cut-off for these calls is given here.
Columns and labels:
[1] = target: Fatty-acid amide hydrolase 1 (Rattus norvegicus) (UniProt P97612); experiment: Inhibition of rat FAAH assessed as recovery of enzyme activity at IC80 concentration after 18 hrs at 4 degC by dialysis
[2] = target: Fatty-acid amide hydrolase 1 (Rattus norvegicus) (UniProt P97612); experiment: Inhibition of rat FAAH assessed as recovery of enzyme activity at IC80 concentration after 18 hrs at 22 degC by dialysis

Protein sequences, listed by entry. Tags and fused reporters are not part of them.
UniProt P97612, whole entry: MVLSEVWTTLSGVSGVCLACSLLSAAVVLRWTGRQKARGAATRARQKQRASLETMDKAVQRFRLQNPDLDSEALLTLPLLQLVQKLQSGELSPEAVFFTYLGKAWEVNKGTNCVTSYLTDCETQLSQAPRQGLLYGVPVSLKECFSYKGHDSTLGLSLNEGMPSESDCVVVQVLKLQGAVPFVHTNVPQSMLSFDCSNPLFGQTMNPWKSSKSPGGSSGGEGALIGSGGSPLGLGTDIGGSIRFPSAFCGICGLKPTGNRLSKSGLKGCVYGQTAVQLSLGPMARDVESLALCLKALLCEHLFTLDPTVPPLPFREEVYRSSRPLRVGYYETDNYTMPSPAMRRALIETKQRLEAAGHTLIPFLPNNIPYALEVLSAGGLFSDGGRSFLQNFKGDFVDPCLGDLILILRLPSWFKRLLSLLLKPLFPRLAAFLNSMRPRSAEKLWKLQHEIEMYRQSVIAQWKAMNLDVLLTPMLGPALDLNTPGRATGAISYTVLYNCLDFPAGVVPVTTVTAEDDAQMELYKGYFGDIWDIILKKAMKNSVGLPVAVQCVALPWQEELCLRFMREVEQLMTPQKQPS

For O=C(CCCCCCc1ccccc1)c1ncc(-c2ccccn2)o1, the Activity [1] was “inactive” and the Activity [2] was “inactive”.

— ChEMBL document CHEMBL1139400, “Thiadiazolopiperazinyl ureas as inhibitors of fatty acid amide hydrolase” (Bioorg Med Chem Lett, 2008)
